Consider 2 substances from US7687623B2, “Pyrrolobenzodiazepines and heterocyclic carboxamide derivatives as follicle stimulating hormone receptor (FSH-R) antagonists” (Wyeth LLC, priority 2005, dated 2010).

The chains behind the UniProt entries cited, without tags or fusion partners. Residues count along the entry.
UniProt P16473, 21-764: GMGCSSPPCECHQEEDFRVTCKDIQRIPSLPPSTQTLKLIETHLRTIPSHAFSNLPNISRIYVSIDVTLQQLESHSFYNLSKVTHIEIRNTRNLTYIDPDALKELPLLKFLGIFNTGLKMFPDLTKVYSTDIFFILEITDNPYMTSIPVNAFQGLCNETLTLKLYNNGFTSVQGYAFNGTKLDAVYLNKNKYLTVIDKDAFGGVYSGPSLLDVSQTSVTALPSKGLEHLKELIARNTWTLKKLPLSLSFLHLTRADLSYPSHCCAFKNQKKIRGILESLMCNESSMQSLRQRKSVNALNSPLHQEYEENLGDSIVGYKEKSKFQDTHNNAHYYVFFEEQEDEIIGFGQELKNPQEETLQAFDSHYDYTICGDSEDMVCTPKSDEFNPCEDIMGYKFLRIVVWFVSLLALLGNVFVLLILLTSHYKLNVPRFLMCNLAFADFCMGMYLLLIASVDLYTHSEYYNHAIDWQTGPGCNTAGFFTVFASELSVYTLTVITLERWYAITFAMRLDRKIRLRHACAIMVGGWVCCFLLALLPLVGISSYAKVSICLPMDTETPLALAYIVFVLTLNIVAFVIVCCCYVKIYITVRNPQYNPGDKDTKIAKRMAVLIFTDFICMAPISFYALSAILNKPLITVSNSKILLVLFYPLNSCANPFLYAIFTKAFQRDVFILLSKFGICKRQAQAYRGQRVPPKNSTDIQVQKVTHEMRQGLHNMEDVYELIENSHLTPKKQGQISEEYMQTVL

What all share (type): cell-based
One experiment deals with T1, human FSH receptor (Homo sapiens, UniProt P23945).
T1 construct: host or cells: CHO-K1 (CHO FSH-R 6CRE-Luc, 1D7 cells)
T1 sequence (P23945 18-695): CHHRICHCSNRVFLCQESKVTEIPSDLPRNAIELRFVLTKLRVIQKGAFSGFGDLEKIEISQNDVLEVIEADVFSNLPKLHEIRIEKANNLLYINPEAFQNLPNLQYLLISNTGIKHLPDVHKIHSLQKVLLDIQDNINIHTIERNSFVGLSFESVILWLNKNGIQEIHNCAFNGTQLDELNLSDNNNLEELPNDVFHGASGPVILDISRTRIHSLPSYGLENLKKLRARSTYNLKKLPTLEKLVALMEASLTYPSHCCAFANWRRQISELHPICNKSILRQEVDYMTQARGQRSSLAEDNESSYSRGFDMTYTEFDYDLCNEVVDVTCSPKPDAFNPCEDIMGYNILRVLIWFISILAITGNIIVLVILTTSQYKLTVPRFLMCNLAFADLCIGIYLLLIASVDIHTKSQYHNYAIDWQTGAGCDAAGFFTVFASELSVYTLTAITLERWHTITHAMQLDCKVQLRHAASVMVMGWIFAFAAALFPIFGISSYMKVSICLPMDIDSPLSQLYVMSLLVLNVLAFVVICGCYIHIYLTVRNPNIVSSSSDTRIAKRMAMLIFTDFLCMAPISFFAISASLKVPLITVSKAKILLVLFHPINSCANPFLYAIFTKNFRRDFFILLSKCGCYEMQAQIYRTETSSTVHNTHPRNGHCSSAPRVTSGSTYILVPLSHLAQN
The experiment can be described thus: FSH receptor-dependent CRE-luciferase reporter gene assay (CHO FSH-R 6CRE-Luc, 1D7 cells). Conditions: positive control. How it is done: This procedure was used to identify and determine the relative potencies of human FSH receptor antagonists using a Chinese hamster ovarian cell line that stably produces the human FSH receptor and a luciferase reporter gene regulated by cAMP response elements.
COMPOUND VEHICLE: Stock compounds were solubilized in an appropriate vehicle, preferably phosphate buffered saline (PBS) or dimethyl sulfoxide (DMSO), at 30 mM. The compounds were subsequently diluted in DMSO to working dilutions of 1 and 20 or 30 mM for 2-dose testing format and 1 μM-10 mM for dose-response format. The DMSO dilutions were diluted 500-fold in sterile growth medium [D-MEM/F-12 (GIBCO/BRL; Grand Island N.Y.) containing 15 mM HEPES, 2 mM 1-glutamine, pyridoxine hydrochloride, phenol red and 5% FetalClone II (HyClone Laboratories, Inc; Logan, Utah), 0.2% DMSO, 100 units penicillin G/ml, and 100 μg streptomycin sulfate/ml (GIBCO/BRL)]. The concentration of the vehicle in each of the compound dilutions was the same. POSITIVE CONTROLS: Purified human FSH (>98%) was purchased from Cortex Biochem, Inc. (San Leandro, Calif.) and a known FSH-R thiazolidinone antagonist was obtained from the Wyeth Research compound repository. Preparation of Cells […]
Background luminescence was measured for each well prior to the addition of the LucScreen reagent. […]
Luciferase activity is expressed as relative light units/sec/well. […]
For orientation: A reporter such as luciferase makes a cellular process visible.

The next experiment concerns the target T2, hFSH-R (Homo sapiens, UniProt P23945).
T2 construct: expressed in transfected cells; host or cells: CHO-3D2 cells
T2 sequence (P23945 18-695): T1 sequence (P23945 18-695)
In words: cAMP accumulation (RIA) in CHO-3D2 cells (hFSH-R), hFSH-induced. Conditions: agonist mode, four-parameter logistic equation. How it is done: This assay was used to verify in vitro potency, efficacy, selectivity and receptor dependency of hits found to inhibit an FSH-R-CRE-luciferase driven reporter.
COMPOUND VEHICLE: Stock compounds were solubilized in 100% DMSO (Sigma Chemical Co.) at a concentration of 30 mM. The compounds were subsequently diluted in sterile assay medium consisting of Opti-MEM® I (Life Technologies) with 0.1% (w/v) BSA (Sigma), prior to use in the bio-assay. The final concentration of DMSO in the assay is 0.1%.
The day prior to the experiment, CHO-3D2 cells (hFSH-R)(1) were plated into 96-well tissue culture plates (Falcon) at a density of 30,000 cells/well in DMEM/F12 medium (Life Technologies) supplemented with 5% Fetal Clone II (Hyclone), 2 mM L-glutamine (Life Technologies) and penicillin/streptomycin (100 U/ml, Life Technologies). Plated cells are then incubated at 37° C. in a humidified 5% CO2/95% air, atmosphere.
On the day of the assay, cells were washed three times with 100 μl/well of assay medium consisting of Opti-MEM® I (Life Technologies) with 0.1% (w/v) BSA (Sigma). Medium was removed and 100 μl of assay medium was added to each well. […] Reactions were terminated by the addition of 50 μl of 0.2N hydrochloric acid to each well and cAMP-accumulation was measured by radioimmunoassay (RIA) using a commercially available kit (Amersham).
All test compounds were evaluated in a dose-response paradigm ranging from about 0.01 to about 30 μM. Controls and test compounds were evaluated in quadruplicate in a 96-well format. […] The ability of the compounds to inhibit the cAMP-accumulation induced by hFSH was evaluated by RIA.
In every assay the EC20 concentration was calculated and only those experiments in which the EC20 concentrations were equal to 1.85±0.4 ng/mL were accepted as valid. […]
cAMP accumulation is expressed as fmol/ml. cAMP accumulation in the agonist mode, or the ability of the compound to inhibit hFSH-, hTSH-, or forskolin-induced cAMP-accumulation in the antagonist mode, was compared to the appropriate negative and positive controls. […]
In general terms: cAMP levels reflect the balance of adenylyl cyclase and phosphodiesterase activity.

A further experiment concerns the target T3, hTSH-R (Homo sapiens, UniProt P16473).
T3 construct: expressed in transfected cells; host or cells: CHO-25 cells
In words: Selectivity studies: cAMP accumulation in CHO-25 (hTSH-R) cells. As to the method:
cAMP accumulation assays using CHO-25 (hTSH-R) cells were performed as described above for the CHO-3D2 cells with the following exceptions: CHO-25 cells were plated at a density of 50,000 cells/well (2). All test compounds were evaluated in a dose-response paradigm ranging from about 0.01 to 30 μM. Controls and test compounds were evaluated in quadruplicate. Cells were treated with vehicle, hTSH at EC20 (5 nM; hTSH>98% pure, Cortex Biochem, Inc.), or the compounds in the presence or absence of the hTSH at its EC20 concentration. The ability of the compounds to inhibit cAMP-accumulation induced by hTSH was evaluated by RIA.
Along with the test compounds, hTSH was also run as a positive control in the agonist mode using concentrations ranging from about 0.01 μM-1000 μM.
cAMP accumulation is expressed as fmol/ml. cAMP accumulation in the agonist mode, or the ability of the compound to inhibit hFSH-, hTSH-, or forskolin-induced cAMP-accumulation in the antagonist mode, was compared to the appropriate negative and positive controls. Data were analyzed by one-way analysis of variance and significant differences between treatments and control determined by Least Significant Difference test.

Turning to “hFSH: Purified human FSH (>98%) purchased from Cortex Biochem, Inc.; positive control [reference compound]”, in the experiment with human FSH receptor, the “EC50, luciferase reporter” value stood at 0.4 ng/mL and the “EC100, luciferase reporter” value is 1000 ng/mL. Also, in the experiment with hFSH-R, the “apparent EC20, cAMP accumulation” value is 1.85 ng/mL; the “apparent EC50, cAMP accumulation” value was 6.03 ng/mL; the “apparent EC80, cAMP accumulation” value came to 22.55 ng/mL.
Regarding “hTSH: hTSH >98% pure, Cortex Biochem, Inc.; positive control in selectivity studies”, in the experiment with hTSH-R, the “EC20, cAMP accumulation” value is on record as 5 nM.
